# Results: paper PMC12280212
# Only a part is listed here, and it is no random draw.
# Target: Actin, cytoplasmic 1 (UniProt P60709)
# Experiment: cross-linking mass spectrometry
substance,measurement,value
"Protein S100-A6, P06703",listed as a hit,yes
